Assay results reported in US20240360179A1, “STAPLED PEPTIDES AND METHODS THEREOF” (FOG PHARMACEUTICALS, INC., priority 2021, published 2024).

The chains behind the UniProt entries cited, without tags or fusion partners.
UniProt P35222, whole entry: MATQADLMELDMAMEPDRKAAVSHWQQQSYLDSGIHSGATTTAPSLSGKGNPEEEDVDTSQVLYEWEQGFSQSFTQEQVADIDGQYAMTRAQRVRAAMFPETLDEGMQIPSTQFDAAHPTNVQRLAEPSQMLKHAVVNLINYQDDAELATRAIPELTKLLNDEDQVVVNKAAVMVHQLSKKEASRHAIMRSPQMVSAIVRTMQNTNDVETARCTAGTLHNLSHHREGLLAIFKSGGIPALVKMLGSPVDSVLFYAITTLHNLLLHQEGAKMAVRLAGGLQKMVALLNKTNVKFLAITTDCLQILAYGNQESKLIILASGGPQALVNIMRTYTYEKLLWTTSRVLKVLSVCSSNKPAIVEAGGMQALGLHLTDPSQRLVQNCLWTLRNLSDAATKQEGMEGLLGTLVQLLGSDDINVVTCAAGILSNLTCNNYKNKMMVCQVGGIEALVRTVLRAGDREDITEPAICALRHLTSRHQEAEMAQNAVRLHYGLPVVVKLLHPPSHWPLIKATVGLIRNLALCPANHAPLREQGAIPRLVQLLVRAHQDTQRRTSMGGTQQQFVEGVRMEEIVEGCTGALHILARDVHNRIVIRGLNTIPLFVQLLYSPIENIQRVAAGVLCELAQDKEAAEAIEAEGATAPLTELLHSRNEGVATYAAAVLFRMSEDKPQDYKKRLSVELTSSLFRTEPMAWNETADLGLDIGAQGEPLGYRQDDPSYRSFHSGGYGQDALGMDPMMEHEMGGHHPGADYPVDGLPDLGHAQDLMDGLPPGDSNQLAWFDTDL

Experiments:
[1] = target: beta-catenin/TCF4 interaction (Homo sapiens, UniProt P35222); assay: cell-based; design: host or cells: HEK293; conditions: NanoBRET Abs IC50 (uM)
[2] = target: T1, full-length B-Catenin (Uniprot ID P35222) (Homo sapiens, UniProt P35222); assay: biochemical; format: binding; conditions: beta-Catenin FP IC50 (nM), competition fluorescence polarization
T1 construct: 10 nM full-length B-Catenin (Uniprot ID P35222)

IC50 ([1]; absolute IC50) [µM]	IC50 [2] [nM]	IC50 [1] [µM]	Compound
1.5 to 3	< 50	–	CC(=O)N1CCC[C@]12CC=CCCCC1(CCCC=CCCCOC(=O)N3CC[C@@]4(C3)NC(=O)[C@H](CCCCNC(=O)CC[C@@H](C(=O)N[C@@H](C)C(N)=O)NC(=O)[C@H](Cc3csc5ccccc35)NC(=O)[C@H](Cc3ccsc3)NC4=O)NC(=O)[C@H](Cc3ccccc3)NC(=O)[C@H](C)NC(=O)[C@H](CCC(=O)N3CCOCC3)NC(=O)[C@H](Cc3cccc(C(=O)O)c3)NC(=O)[C@H](CC(=O)O)NC1=O)NC(=O)[C@H](CC(C)(C)C)NC(=O)[C@H](CC(N)=O)NC2=O (relative stereo) [I-323, Ac-PL3-Asn-Npg-B5-Asp-3COOHF-MorphGln-Ala-Phe-Lys*3-PyrS2-3Thi-BztA-GlnR*3-Ala-NH2]
–	< 50	3 to 10	CC(=O)N1CCC[C@]12CC=CCCCC1(CCCC=CCCCOC(=O)N3CC[C@@]4(C3)NC(=O)[C@H](CCCCNC(=O)CC[C@@H](C(=O)N[C@@H](C)C(N)=O)NC(=O)[C@H](Cc3csc5ccccc35)NC(=O)[C@H](Cc3ccsc3)NC4=O)NC(=O)[C@H](Cc3ccccc3)NC(=O)[C@H](C)NC(=O)[C@H](C)NC(=O)[C@H](Cc3cccc(C(=O)O)c3)NC(=O)[C@H](CC(=O)O)NC1=O)NC(=O)[C@H](CC(C)(C)C)NC(=O)[C@H](CC(N)=O)NC2=O (relative stereo) [I-80, Ac-PL3-Asn-Npg-B5-Asp-3COOHF-Ala-Ala-Phe-Lys*3-PyrS2-3Thi-BztA-GlnR*3-Ala-NH2]
> 10	50 to 200	–	C[C@H](NC(=O)[C@@H]1CCC(=O)NCCCC[C@@H]2NC(=O)[C@H](Cc3ccccc3)NC(=O)[C@H](C)NC(=O)C(C)(C)NC(=O)[C@H](Cc3cccc(C(=O)O)c3)NC(=O)[C@H](CC(=O)O)NC(=O)[C@](C)(NC(=O)[C@@H]3CN(Cc4ccccc4)CCCCCC(=O)N4CCC[C@@]4(C)C(=O)N[C@@H](CC(=O)O)C(=O)N3)CCCCCCCCOC(=O)N3CC[C@@](C3)(NC2=O)C(=O)N[C@@H](Cc2ccsc2)C(=O)N[C@@H](Cc2csc3ccccc23)C(=O)N1)C(N)=O (relative stereo) [I-562, 4pentenyl-MePro-Asp-[Bn][Allyl]Dap-R5-Asp-3COOHF-Aib-Ala-Phe-Lys*3-PyrS2-3Thi-BztA-GlnR*3-Ala-NH2]

The remaining lines, values behind:

Compound	IC50 ([1]; absolute IC50) [µM]	IC50 [2] [nM]	IC50 [1] [µM]
C[C@H](NC(=O)[C@@H]1CCC(=O)NCCCC[C@@H]2NC(=O)[C@H](Cc3ccccc3)NC(=O)[C@H](C)NC(=O)C(C)(C)NC(=O)[C@H](Cc3cccc(C(=O)O)c3)NC(=O)[C@H](CC(=O)O)NC(=O)[C@](C)(NC(=O)[C@@H]3CN(C(=O)C(C)(C)C)CCCCCCC(=O)N4CCC[C@@]4(C)C(=O)N[C@@H](CC(=O)O)C(=O)N3)CCCCCCCCOC(=O)N3CC[C@@](C3)(NC2=O)C(=O)N[C@@H](Cc2ccsc2)C(=O)N[C@@H](Cc2csc3ccccc23)C(=O)N1)C(N)=O (relative stereo) [I-564, 5hexenyl-MePro-Asp-[Piv][Allyl]Dap-R5-Asp-3COOHF-Aib-Ala-Phe-Lys*3-PyrS2-3Thi-BztA-GlnR*3-Ala-NH2]	> 10	50 to 200	–
CC(=O)N1CCC[C@]12CC=CCCCC1(CCCC=CCCCOC(=O)N3CC[C@@]4(C3)NC(=O)[C@H](CCCCNC(=O)CC[C@@H](C(=O)N[C@@H](C)C(N)=O)NC(=O)[C@H](Cc3csc5ccccc35)NC(=O)[C@H](Cc3ccsc3)NC4=O)NC(=O)[C@H](Cc3ccccc3)NC(=O)[C@H](C)NC(=O)[C@H](C(C)C)NC(=O)[C@H](Cc3cccc(C(=O)O)c3)NC(=O)[C@H](CC(=O)O)NC1=O)NC(=O)[C@H](CC(C)(C)C)NC(=O)[C@H](CC(=O)O)NC2=O (relative stereo) [I-388, Ac-PL3-Asp-Npg-B5-Asp-3COOHF-Val-Ala-Phe-Lys*3-PyrS2-3Thi-BztA-GlnR*3-Ala-NH2]	< 1.5	< 50	–
